Test results published in paper PMC3686795, “CD38 Structure-Based Inhibitor Design Using the N1-Cyclic Inosine 5′-Diphosphate Ribose Template” (PLoS ONE, 2013).

Amino acid sequences for entries named in this document (tags omitted). Residues count along the entry.
UniProt P28907, 45-300 N100D/N164A/N209D/N219D limits assumed: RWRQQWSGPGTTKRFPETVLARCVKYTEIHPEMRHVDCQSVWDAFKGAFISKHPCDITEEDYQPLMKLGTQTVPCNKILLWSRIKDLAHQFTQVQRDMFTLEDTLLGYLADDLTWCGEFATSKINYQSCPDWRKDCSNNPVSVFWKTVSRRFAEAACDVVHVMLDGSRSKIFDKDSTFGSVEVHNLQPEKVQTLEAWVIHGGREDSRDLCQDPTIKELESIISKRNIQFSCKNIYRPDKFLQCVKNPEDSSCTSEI

Biological target: T1, wild-type CD38 (cADPR hydrolase activity) (Homo sapiens, UniProt P28907, N100D/N164A/N209D/N219D)
T1 construct: Crystal structure of human CD38 extracellular domain; made in house
Assay: Enzymatic assay for cADPR hydrolysis (inhibition of CD38-catalyzed cADPR hydrolysis, fluorimetric cycling assay)
Type: biochemical
Conditions: 1 µM cADPR, 2 µg/mL CD38, 10 min, 20–24°C, pH 4.5
Description: The inhibition of cADPR hydrolysis by various concentrations of inhibitor (0–1 mM) was determined by incubating 1 µM cADPR with 2 µg/mL of CD38 for 10 min at 20–24°C in 25 mM sodium acetate, pH 4.5. The reaction was stopped by the addition of 150 mM HCl. The precipitated protein was filtered, and the pH was neutralized with Tris base. After diluting the mixture 20-fold, the concentration of the unhydrolyzed cADPR present in the diluted reaction mixture was assayed by the fluorimetric cycling assay as previously described.

IC50: 158 µM
Structure (SMILES): O=c1c2nc(Br)n3c2ncn1[C@@H]1O[C@H](COP(=O)(O)OP(=O)(O)OC[C@H]2O[C@@H]3[C@H](O)[C@@H]2O)[C@@H](O)[C@H]1O [8-Bromo N1-cIDPR, 8-bromo N1-cIDPR]
